Test results taken from patent publication US9603953B2, “Dendrimer compositions, methods of synthesis, and uses thereof” (priority 2014, dated 2017).
Like-named read-outs stand apart in the source and are kept apart here.

Tests used:
[1] = test system: Wistar rats; assay: Acute toxicity test after intravenous and intraperitoneal administration in the rat (Example 5); type: in vivo; conditions: single dose 63,4316 picomole/kg (33.17 mCi/kg = 1226 MBq/kg), male Wistar rats, observed 1 hour, 8 times human equivalent dose
[2] = test system: Wistar rats; conditions: single in situ intrahepatic dose 5.72 mCi/kg (209.969 MBq/kg), rat, observed 1 hour; 1,3 times human equivalent dose

## Dendrimer G5 {1-nitro-1H-Imidazole-methyl-1,2,3-triazol-methyl-di-(2-pycolyl)amine}
[1]
  mortality: 0%
[2]
  mortality: 0%
